## Yeast mating assay B: variants of the scFv Ab-14

Data: MIT Lincoln Laboratory AlphaSeq set, Li et al. 2023, doi:10.1038/s41467-023-39022-2, as distributed in FLAb.

The target is the same throughout: PDVDLGDISGINAS, from the HR2 region of SARS-CoV-2 spike.

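This is the validation round: designs drawn from the data on random variants, tested in the same kind of assay. Their group label is 14L_Ctrl (Ctrl: baseline library sampled from a position-specific scoring matrix, with some repeated check sequences). The assay is AlphaSeq: two haploid yeast populations carry antibody and antigen on their surface. The frequency of each diploid, read from paired DNA barcodes, reflects how well the two displayed proteins bind. The ratio of observed to expected reads was calibrated, replicate by replicate, on BCL2-family standards whose Kd was known from biolayer interferometry. The assay was run in six technical replicates.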

Ab-14 is the parent antibody, in scFv form: VH, then three GGGGS repeats, then VL. The heavy chain is unchanged in all variants.
VH: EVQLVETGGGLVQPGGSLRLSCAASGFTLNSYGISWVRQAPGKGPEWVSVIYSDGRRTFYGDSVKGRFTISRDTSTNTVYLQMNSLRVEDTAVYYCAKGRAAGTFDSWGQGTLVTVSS
VL: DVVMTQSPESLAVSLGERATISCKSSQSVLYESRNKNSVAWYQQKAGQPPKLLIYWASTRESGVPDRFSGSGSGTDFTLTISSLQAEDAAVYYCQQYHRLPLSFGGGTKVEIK

Changes read parent residue, position, new residue, counted from the first residue of the VL shown. The read-out is the apparent dissociation constant on a log10 scale (nM): the lower, the stronger. Averages over replicates are reported, and they cover detected replicates only. A pair that was not seen in that replicate is written "nd"; this usually means weak binding, but a binder can also be missed. A sequence measured in both rounds can read differently, since the two assays cover different ranges. Three control strains display no target. For all light chain designs, 4% of the pairings with them gave a signal, with a median of 2.64 and one signal in twenty below 1.59, so weak values seen in few replicates may be background. Also given: how often the same scFv was detected with the empty control strains, with their mean in brackets. In the paper, a design with two or fewer of six values counts as a poor binder.

| changes | log10 Kd (nM) by replicate | mean, log10 nM | control signals |
|---|---|---|---|
| S25C S28G V29L S33N N37P W56Q S62H | 1.32 / 1.67 / 1.47 / 1.29 / 1.38 / 1.68 | 1.47 | 3/18 (3.36) |
| S25N V29W L30T S33Q W56R | 1.21 / 1.60 / 1.63 / 1.09 / 1.35 / 1.72 | 1.43 | 3/18 (2.60) |
| S38I T59H Q96F | nd / nd / nd / nd / nd / nd | nd | 0/18 |
| Y31T K36N | 1.87 / 1.97 / 2.44 / 2.66 / 1.95 / nd | 2.18 | 0/18 |
| V29H | 1.40 / 2.04 / 1.05 / 1.46 / 1.59 / 1.45 | 1.50 | 0/18 |
| K36Q N37L W56E Q96G | nd / nd / 1.86 / nd / nd / 1.80 | 1.83 | 0/18 |
| Q27E R34N R99H | 1.08 / 1.26 / 2.34 / 1.14 / 1.86 / 1.50 | 1.53 | 2/18 (2.16) |
| V29M L30M W56H H98Y | -0.08 / -0.15 / -0.20 / 0.14 / -0.19 / -0.04 | -0.09 | 0/18 |
| S28L V29E W56E T59Q E61S H98Q | 2.69 / 1.08 / 0.65 / 1.96 / 0.99 / 0.70 | 1.35 | 0/18 |
| S25C S62E Y97L | nd / nd / nd / nd / nd / nd | nd | 0/18 |
| S25M S62L | 0.70 / 0.98 / 0.55 / 0.49 / 0.77 / 0.92 | 0.73 | 1/18 (2.58) |
| K24Q Q27P V29G Y31T Y97G S103R | nd / nd / nd / nd / nd / nd | nd | 0/18 |
| K24Q T59E Y97V | nd / nd / nd / nd / nd / nd | nd | 1/18 (1.41) |
| S62K L102E | nd / nd / nd / nd / nd / nd | nd | 0/18 |
| P101S | nd / nd / nd / nd / nd / nd | nd | 0/18 |
| R34H W56M | nd / nd / nd / nd / 2.56 / nd | 2.56 | 0/18 |
| L30M W56A Q96E | 2.34 / 1.33 / 1.36 / 1.14 / 1.38 / 1.33 | 1.48 | 0/18 |
| V29E Y31A W56A S58T T59L | 0.29 / 0.41 / 0.05 / 0.10 / 0.29 / 0.35 | 0.25 | 0/18 |
| S26P W56G T59L Y97E | 1.42 / 1.70 / 1.12 / nd / nd / nd | 1.42 | 1/18 (1.90) |
| S25F K36F E61M S103Q | 2.14 / 0.79 / 0.16 / 0.69 / 0.72 / 1.06 | 0.93 | 0/18 |
| S26F Y31W S33L K36A W56D | 0.66 / 0.44 / 0.75 / 0.72 / 0.27 / 0.82 | 0.61 | 1/18 (2.44) |
| L30G W56C T59I | 2.09 / 2.60 / 1.76 / 2.49 / 3.05 / 2.23 | 2.37 | 0/18 |
| L30S R34Q | 1.95 / 3.78 / 2.67 / 1.57 / 3.21 / 2.17 | 2.56 | 0/18 |
| S25I V29M W56A S62T Q96D R99G | 1.09 / 0.80 / 0.77 / 0.72 / 0.71 / 1.17 | 0.88 | 2/18 (2.73) |
| S28Q E32N P101L S103P | nd / nd / nd / nd / nd / nd | nd | 0/18 |
| N37H L100W | nd / nd / nd / nd / nd / nd | nd | 2/18 (1.91) |
| K36V | 1.80 / 2.64 / 1.78 / 1.38 / 1.82 / 2.08 | 1.92 | 0/18 |
| S25L S28A K36C H98C P101N L102C | nd / nd / nd / nd / nd / nd | nd | 1/18 (2.17) |
| L30I K36Q | nd / nd / 2.02 / nd / nd / nd | 2.02 | 0/18 |
| S25L Q27Y V29S E61C Y97H | nd / nd / nd / nd / nd / nd | nd | 0/18 |
| V29Y Y31G P101K | nd / nd / nd / nd / nd / nd | nd | 0/18 |
| Y31S R34D | 0.57 / 0.60 / 0.58 / 0.60 / 0.44 / 1.19 | 0.66 | 1/18 (0.85) |
| S28R V29E | 1.38 / 2.75 / 1.32 / 2.38 / 1.96 / 2.39 | 2.03 | 1/18 (3.02) |
| S25I Y31R S62V R99Y | 0.68 / 0.33 / 0.53 / 0.41 / 0.48 / 0.67 | 0.51 | 2/18 (3.30) |
| W56D S62E L102W | 1.45 / 1.83 / 1.51 / 1.13 / 1.83 / 1.65 | 1.57 | 0/18 |
| R34G N37P W56N Q95P Y97H | nd / nd / nd / nd / nd / nd | nd | 3/18 (2.02) |
| V29M Y31E N35Y N37Y W56N | 1.19 / 0.75 / 0.20 / 0.37 / 0.79 / 1.08 | 0.73 | 0/18 |
| R34S L100Y | nd / 2.75 / nd / nd / 1.79 / nd | 2.27 | 0/18 |
| Q27M L30T | 1.88 / 2.05 / 0.91 / 1.52 / 1.19 / 2.01 | 1.59 | 0/18 |
| W56D S62H | -0.01 / -0.13 / -0.01 / -0.01 / 0.17 / 0.20 | 0.03 | 0/18 |
| S25A S28R W56A E61V | 0.62 / 0.28 / 0.51 / 0.72 / 0.28 / 0.55 | 0.49 | 0/18 |
| S25F Q27G R34H | 1.23 / 2.10 / 1.17 / 1.94 / 2.16 / 1.05 | 1.61 | 0/18 |
| S28T L30R Y31E R34T S62M R99I | 1.57 / 0.87 / 0.92 / nd / 0.20 / 0.25 | 0.76 | 0/18 |
| L30F Y31K E32Q W56P L100V | nd / nd / nd / nd / nd / nd | nd | 0/18 |
| L30N Y31T K36F | 1.72 / 1.62 / 2.02 / 2.42 / 1.15 / 1.82 | 1.79 | 0/18 |
| Q27H N37K W56H Q95Y Y97P | nd / 2.05 / nd / nd / nd / nd | 2.05 | 0/18 |
| S25I S26A E61P | 1.15 / 1.36 / 0.79 / 1.08 / 0.65 / 1.14 | 1.03 | 0/18 |
| Q27I R99H | nd / nd / 3.70 / 2.97 / nd / 2.86 | 3.17 | 1/18 (2.51) |
| Q27G Y31W | nd / nd / nd / nd / nd / nd | nd | 1/18 (1.68) |
| K24S S25I Y31Q | 1.22 / 1.54 / 1.19 / 0.06 / 2.92 / 0.80 | 1.29 | 0/18 |
| S33Q S38N S62D P101S | nd / nd / nd / nd / nd / nd | nd | 0/18 |

Excerpt, the first 4 entries:

| changes | log10 Kd (nM) by replicate | mean, log10 nM | control signals |
|---|---|---|---|
| S25C S28G V29L S33N N37P W56Q S62H | 1.32 / 1.67 / 1.47 / 1.29 / 1.38 / 1.68 | 1.47 | 3/18 (3.36) |
| S25N V29W L30T S33Q W56R | 1.21 / 1.60 / 1.63 / 1.09 / 1.35 / 1.72 | 1.43 | 3/18 (2.60) |
| S38I T59H Q96F | nd / nd / nd / nd / nd / nd | nd | 0/18 |
| Y31T K36N | 1.87 / 1.97 / 2.44 / 2.66 / 1.95 / nd | 2.18 | 0/18 |